Consider three compounds from US8546443B2, “Benzylic oxindole pyrimidines” (Boehringer Ingelheim International GmbH, priority 2010, dated 2013).

By UniProt entry, the sequences of proteins in these tests, tags left out. Residues count along the entry.
UniProt P08069, 964-1367 limits assumed: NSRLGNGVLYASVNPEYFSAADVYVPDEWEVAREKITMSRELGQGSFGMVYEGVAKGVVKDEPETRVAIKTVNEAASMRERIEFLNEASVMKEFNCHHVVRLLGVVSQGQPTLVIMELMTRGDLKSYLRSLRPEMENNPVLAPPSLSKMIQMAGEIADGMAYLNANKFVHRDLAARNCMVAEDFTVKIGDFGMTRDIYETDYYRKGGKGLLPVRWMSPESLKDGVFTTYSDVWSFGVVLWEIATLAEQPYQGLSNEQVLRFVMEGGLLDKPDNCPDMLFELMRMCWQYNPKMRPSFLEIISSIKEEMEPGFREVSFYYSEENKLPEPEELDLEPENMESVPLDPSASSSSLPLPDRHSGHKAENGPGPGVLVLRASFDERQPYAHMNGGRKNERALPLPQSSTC

A word on the IC50: it is the point on the concentration scale where inhibition reaches its midpoint.

The experiment has as its target cytoplasmic kinase domain of human IGF-1R (IGF-1R-GST) (Homo sapiens, UniProt P08069). The experiment is described as follows: Insulin-like growth factor-1 receptor (IGF-1R) kinase assay (DELFIA). Conditions: read-out: IGF1R IC50, IGF-1R-GST kinase activity.
As for `COc1cc(C2CCCN(CCO)C2)ccc1Nc1ncc(Br)c(NCc2cccc3c2C(C)(C)C(=O)N3)n1` (racemic), the IC50 is 0.4 nM.

Turning to `CCOc1cc(N2CCNCC2)ccc1Nc1ncc(C(F)(F)F)c(NCc2cccc3c2CC(=O)N3)n1`, the half-maximal inhibitory concentration (IC50) amounted to 3 nM.

Take `COc1cc(C2CCNCC2)ccc1Nc1ncc(C(F)(F)F)c(NCc2cccc3c2C(C)(C)C(=O)N3)n1`: the IC50 worked out at 0.2 nM.
